Compound activity deposited in PubChem by National Center for Advancing Translational Sciences (NCATS).
miR-21 FLuc: miR-21 reporter, rising signal; HeLa miR-21 FLuc reporter, luciferase, 48 h; Potency, µM (titrated, usually from 38.3 µM); AID 2288; 340,000 tested, under 10 active; active = well fitted rising curve with a large enough effect; inconclusive = small, poorly fitted or top-dose-only effect; inactive = no such curve, though single readings can be large or run the other way;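 further: miR-21 action dims this reporter so a rising signal means less miR-21 action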
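Compounds were titrated across several concentrations (up to approximately 40 uM) and incubated 48 hours with HeLa miR-21-FLuc reporter cells (miR-21 target sequence downstream of FLuc, endogenous miR-21). Readout was firefly luciferase luminescence after lytic detection reagent.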
ClpP mod: qHTS Assay for Activators of ClpP; ATP-dependent Clp protease proteolytic subunit (Bacillus subtilis (strain 168)), P80244; purified B. subtilis ClpP, FRET peptide cleavage, 20 min; Potency, µM (titrated, usually from 57.5 µM); hit rate 1.9% among 340,000; active = well fitted falling curve with a large enough effect; inconclusive = small, poorly fitted or top-dose-only effect; inactive = no such curve, though single readings can be large or run the other way; note: the source files actives as falling curves though it sought activators and does not explain the sign; nearly all actives have a fitted effect of over 65% in size
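Purified B. subtilis ClpP, 10 microg/mL final in Tris/HCl pH8 with KCl, BSA, glycerol and Tween-20, cleaved an Abz/nitrotyrosine-quenched decapeptide. Fluorescence (ex 320, em 430) was read at 0 and 20 min at room temperature. Delta was normalized to 5.8 microM ADEP and DMSO/no-enzyme controls.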
Nrf2 ARE act: Nrf2 pathway activation; AREc32 ARE-luciferase reporter (MCF7-derived line), luminescence, 24 h; hit rate 0.31% among 410,000; Potency, µM (series often up to 46.1 µM), actives largely listed as activators; AID 624171; note: nearly all actives have a fitted effect of over 65% in size
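Each well held 1000 AREc32 cells, which were incubated with compound for 24 hr at 37 deg C after overnight attachment, and ARE reporter activity was quantified by firefly luciferase luminescence.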
Nrf2 inh: blocks Nrf2 signaling; Potency, µM (doses to about 46 µM), actives largely listed as inhibitors; AID 504444; A549 ARE-Fluc reporter, luciferase luminescence, 18-24 h; hit rate 2.1% among 360,000; note: nearly all actives have a fitted effect of over 60% in size
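A549 ARE_Fluc cells, 5000/well, 5% FBS OPTI-MEM; compounds in dose-response, 18-24 h at 37 °C/5% CO2; CellTiter-Fluor viability read (Ex 405/Em 525), then BugLite luciferase luminescence = Nrf2 activity.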
TCR activator: activators of T cell receptors; primary human leukocytes, anti-CD3, IL-2 HTRF, 48 h; Potency, µM (highest dose often 9.22 µM), actives largely listed as activators; 330,000 tested, under 10 active
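IL-2 release read by HTRF sandwich (Eu cryptate donor, d2 acceptor, 665 nm emission) after 48 hr exposure of primary human leukocytes to compound together with anti-CD3 beads in the absence of co-stimulatory signals.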
A549 viability: A549 cytotoxicity, counter-screen for Nrf2 inhibitors. A549 ARE-Fluc cells, CellTiter-Fluor viability, 18-24 h. Potency, µM (titrated, usually from 46 µM), hits mostly inhibitors. hit rate 0.16% among 390,000
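A549 ARE-Fluc cells in 5% FBS OPTI-MEM, 5000 cells/well, rested 2 h then exposed to compounds in concentration-response for 18-24 h at 37 °C. Viability by CellTiter-Fluor fluorescence (Ex 405/Em 525) after 30 min; luciferase luminescence (BugLite, 15 min, RT) read afterwards.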
Hits are given with their value; . = inactive; ? = inconclusive; / = not tested or not shown; [ ] = another dose, or the depositor's remark. Rows were chosen to be rich in hits. Some 3.7% of all compounds tested hit in one or more screens of this group. Unless noted, calls come from the whole dose curve; as a rule, active = well fitted curve in the direction sought with a large enough effect; inconclusive = small, poorly fitted or top-dose-only effect, or another doubt; inactive = no such curve, though single readings can be large; an effect the other way counts as inactive or inconclusive.

SMILES | miR-21 FLuc | ClpP mod | Nrf2 ARE act | Nrf2 inh | TCR activator | A549 viability
CCN(CC)CCNC(=O)C1CCN(C(=O)c2cnn(-c3ccccc3)c2-n2cccc2)CC1 | . | . | . | . | / | .
COCCN(C(=O)COC(=O)C12CC3CC(CC(O)(C3)C1)C2)c1c(N)n(Cc2ccccc2)c(=O)[nH]c1=O | / | . | . | / | / | /
CCc1ccc(CNC(=O)c2cc3c(C)nc4ccccc4c3o2)cc1 | . | ? | . | 15µM | . | .
COc1cccc(CNC(=O)c2cc3c(C)nc4ccccc4c3o2)c1 | . | . | . | . | . | .
O=C(NCCc1ccc(Cl)cc1)c1cnc2sc(N3CCCCC3)nn2c1=O | . | . | . | . | / | .
Cc1c(C(=O)Nc2ccc(F)cc2)nnn1-c1cccc(C(F)(F)F)c1 | . | / | . | 21µM | . | .
CC(C)[C@H](NC(=O)N1c2ccccc2NC(=O)[C@@H]1C(C)C)C(=O)N[C@@H](Cc1c[nH]c2ccccc12)C(=O)O | . | . | . | . | . | .
Cc1nn(Cc2ccccc2)c(C)c1C(=O)OCC(=O)c1cc(C)n(CC(F)(F)F)c1C | . | . | . | 16µM | . | .
O=C(N/N=C/c1ccc2c(c1)OCO2)c1ccc2c(c1)OCO2 | . | . | . | . | . | .
O=C(N/N=C\c1ccc2c(c1)OCO2)c1ccco1 | . | . | . | ? | . | .
O=C(N/N=C\c1cccc(OC(=O)c2ccco2)c1)c1ccc2c(c1)OCO2 | . | . | . | 2.3µM | . | .
O=C(N/N=C/c1cccc(O)c1)c1ccc2c(c1)OCCO2 | . | . | . | 0.41µM | . | .
COCCN1C(=O)/C(=C/c2ccc(OCc3ccc(C(=O)O)cc3)c(OC)c2)SC1=Nc1ccccc1 | . | . | . | ? | . | 21µM
O=C(CCNC(=O)c1ccccc1Cl)Nc1cccc(S(=O)(=O)N2CCOCC2)c1 | / | . | . | . | . | .
CN1C=CC2=C(C#N)C(N)C(C#N)(C#N)C(c3ccccc3)C2C1 (stereo unspecified) | . | 28µM | . | . | . | .
CN1C[C@@H]2C(c3ccccc3)C3(c4ccc(C#N)cc4)CC2(C3)[C@H]1c1ccccc1 (stereo partly specified) | . | . | . | . | . | .
O=C(Nc1nc2ccccc2n1Cc1ccccc1)c1ccco1 | . | . | . | 16µM | . | .
O=C(NCCc1nc2ccccc2n1Cc1ccccc1)c1ccco1 | . | . | . | . | / | .
CCC(=O)Nc1nc2ccccc2n1Cc1ccc(Cl)cc1 | . | . | . | 21µM | . | .
Cc1ccc(/C=C2\SC(=S)N(/N=C/c3cc([N+](=O)[O-])ccc3O)C2=O)o1 | . | . | . | . | . | .
C[C@H]1CN([C@@H](C)CO)S(=O)(=O)c2ccc(/C=C/c3ccccc3)cc2O[C@H]1CN(C)C(=O)NC1CCCCC1 | / | 35µM | . | / | / | /
COc1ccc(CNc2nc(-c3ccc(OC)c(OC)c3)cc(C(F)(F)F)n2)cc1 | . | . | . | .[9.27 µM] | / | .
COc1ccc(-c2cc(C(F)(F)F)nc(NC3CCCC3)n2)cc1OC | . | 35µM | . | ? | . | .
O=C(COC(=O)c1ccccc1F)NC(=O)NC1CCCC1 | / | . | . | . | . | .
O=C(COc1ccc(Br)cc1Br)Nc1ccc(S(=O)(=O)Nc2ncccn2)cc1 | . | . | . | / | / | .
SMILES | miR-21 FLuc | ClpP mod | Nrf2 ARE act | Nrf2 inh | TCR activator | A549 viability
CCc1nc(N2CCOCC2)c(C#N)c2c1COC(C)(C)C2 | . | ? | . | ? | . | .
CC1(C)Cc2c(C#N)c(N3CCN(C(=O)c4ccccc4)CC3)nc(Cc3ccccc3)c2CO1 | . | 32µM | . | / | . | .
CCc1nc(N2CCN(C(=O)c3ccccc3)CC2)c(C#N)c2c1COC(C)(C)C2 | . | 25µM | . | ? | . | .
O=C(NC1CCCC1)c1cc(S(=O)(=O)N2CCCC2)ccc1Cl | . | . | . | . | . | .
Oc1ccc(/C=C/c2ccccc2)c2cccnc12 | / | / | / | ? | / | .
c1ccc(CSc2nccc(-c3ccco3)n2)cc1 | / | . | 10µM | . | . | .
